Values quoted from earlier work in patent US5919673A, “One-pot enzymatic sulfation process using 3'-phosphoadenosine-5'-phosphosulfate and recycled phosphorylated adenosine intermediates” (The Scripps Research Institute, priority 1995, dated 1999).

Sequences of proteins named here, by UniProt entry; tags and fusion partners are left off. A change or cut given only in a name is not applied to a line headed by its entry.
UniProt Q12657: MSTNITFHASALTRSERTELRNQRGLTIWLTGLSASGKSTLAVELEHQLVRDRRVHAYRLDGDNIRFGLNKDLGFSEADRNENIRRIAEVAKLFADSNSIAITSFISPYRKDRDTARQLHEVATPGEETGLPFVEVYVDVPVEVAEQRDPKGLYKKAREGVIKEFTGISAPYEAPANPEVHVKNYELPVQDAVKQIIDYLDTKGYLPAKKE
UniProt Q12650: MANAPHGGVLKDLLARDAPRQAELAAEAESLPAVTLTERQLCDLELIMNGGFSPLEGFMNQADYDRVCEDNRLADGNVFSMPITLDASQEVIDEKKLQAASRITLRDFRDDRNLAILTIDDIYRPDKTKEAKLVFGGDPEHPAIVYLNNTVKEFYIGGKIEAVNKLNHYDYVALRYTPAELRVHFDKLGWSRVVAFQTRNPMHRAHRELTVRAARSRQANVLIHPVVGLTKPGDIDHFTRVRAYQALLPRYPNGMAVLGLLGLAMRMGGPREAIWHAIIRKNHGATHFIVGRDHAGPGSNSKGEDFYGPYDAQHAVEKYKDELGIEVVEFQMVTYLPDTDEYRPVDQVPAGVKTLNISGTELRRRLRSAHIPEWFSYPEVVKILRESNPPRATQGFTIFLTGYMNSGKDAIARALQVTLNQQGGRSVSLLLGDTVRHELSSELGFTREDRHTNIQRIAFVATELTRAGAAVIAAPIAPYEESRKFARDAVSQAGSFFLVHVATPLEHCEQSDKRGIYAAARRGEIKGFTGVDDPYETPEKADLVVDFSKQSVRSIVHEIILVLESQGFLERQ

Experiments:
APS kinase = APS kinase (Penicillium chrysogenum, UniProt Q12657); details: read-out: Ki value of APS
ATP sulfurylase = ATP sulfurylase (Penicillium chrysogenum, UniProt Q12650); details: read-out: Ki (APS, product inhibition)

Ki (APS kinase): 23 µM
Ki (ATP sulfurylase): < 0.25 µM
Structure (SMILES): Nc1ncnc2c1ncn2[C@@H]1O[C@H](COP(=O)(O)OS(=O)(=O)O)[C@@H](O)[C@H]1O [APS, adenosine-5'-phosphosulfate]
